The values that follow come from publication PMC4981245 (ACS chemical biology, 2016).

Protein sequences, listed by entry. Tags and fused reporters are not part of them. Residues count along the entry.
UniProt P31424, 21-1203: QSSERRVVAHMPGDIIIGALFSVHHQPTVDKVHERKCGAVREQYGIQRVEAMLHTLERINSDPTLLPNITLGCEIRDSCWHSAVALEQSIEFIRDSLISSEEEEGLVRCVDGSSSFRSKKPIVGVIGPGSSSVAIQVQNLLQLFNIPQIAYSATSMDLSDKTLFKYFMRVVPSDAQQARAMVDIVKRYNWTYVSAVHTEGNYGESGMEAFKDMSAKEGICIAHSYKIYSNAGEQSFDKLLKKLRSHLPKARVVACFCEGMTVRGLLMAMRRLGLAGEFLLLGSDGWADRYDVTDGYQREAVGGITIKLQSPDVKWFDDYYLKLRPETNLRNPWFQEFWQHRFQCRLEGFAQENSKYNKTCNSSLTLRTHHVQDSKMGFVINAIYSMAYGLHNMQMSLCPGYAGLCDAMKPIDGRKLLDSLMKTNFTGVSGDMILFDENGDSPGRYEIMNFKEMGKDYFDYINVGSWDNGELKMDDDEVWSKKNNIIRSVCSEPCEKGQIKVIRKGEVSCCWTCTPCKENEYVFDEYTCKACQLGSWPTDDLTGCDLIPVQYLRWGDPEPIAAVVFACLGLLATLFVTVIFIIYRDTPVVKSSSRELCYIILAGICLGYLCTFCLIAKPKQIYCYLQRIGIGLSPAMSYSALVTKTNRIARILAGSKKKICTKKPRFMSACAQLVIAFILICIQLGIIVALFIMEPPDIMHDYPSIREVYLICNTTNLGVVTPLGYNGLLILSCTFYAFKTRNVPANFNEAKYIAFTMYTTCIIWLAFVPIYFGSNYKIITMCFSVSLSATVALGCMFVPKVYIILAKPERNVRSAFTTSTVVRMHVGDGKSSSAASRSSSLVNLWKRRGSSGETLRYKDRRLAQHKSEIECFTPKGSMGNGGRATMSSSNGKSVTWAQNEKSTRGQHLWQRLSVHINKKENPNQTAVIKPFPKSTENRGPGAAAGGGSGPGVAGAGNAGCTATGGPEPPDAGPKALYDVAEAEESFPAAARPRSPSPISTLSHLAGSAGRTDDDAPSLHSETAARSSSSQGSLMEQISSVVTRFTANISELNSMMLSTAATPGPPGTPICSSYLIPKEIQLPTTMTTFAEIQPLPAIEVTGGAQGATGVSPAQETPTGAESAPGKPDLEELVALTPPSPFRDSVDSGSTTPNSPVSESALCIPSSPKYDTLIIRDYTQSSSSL

Test [1] addresses T1, mGlu5 (Rattus norvegicus, UniProt P31424). Particulars: previously reported, cited from earlier work.
The target in test [2] is T1, mGlu5. It counts as cell-based. The conditions noted are these: HEK293A-mGlu5-low, EC80 glutamate (~200 nM).
Test [3] concerns the target T1, mGlu5. Particulars: previously reported; cited from earlier work.

As a reminder, the Ki is the equilibrium dissociation constant of an inhibitor or competing ligand from its target. Regarding `Cc1cccc(C#Cc2ccccc2)n1` [6 (MPEP), MPEP, reference compound], in test [1], the “[3H]-mPEPy binding pKi” value was 8.02. Further, in test [1] (read-out: [3H]-mPEPy binding Ki (value in brackets)), the Ki is 9.5 nM. Besides, in test [2], the “EC80 glutamate inhibition pIC50” value worked out at 8.23 ± 0.16. In test [3], the “modulation of glutamate pKB” value is 8.55.
